Data published in PubChem BioAssay AID651654 (Broad Institute, 2012).
This is a selection; strong and weak results do not stand in their true shares. Some results for these compounds are left out of this collection, so the calls shown say nothing about other tests. The source made the active and inactive calls.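 How the source made its calls: active means mean lysis activity across replicates of at least 80%, whatever share of replicates individually reach that level; inactive means mean lysis activity below 80%.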

Test: fungicidal lysis via adenylate kinase leakage – AK release luminescence, single concentration, primary screen (AID 651654)
Conditions: C. neoformans lysis, 4 h, at 15 µM, active compounds read high, normalised: neutral wells 0, clomiphene wells 100
Summary of the method: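 Assay system: Cryptococcus neoformans yeast cells / Dosing: single-point compound dose / Timing: 4 h at 37 °C static, read 1 h later / Measured by: luminescence of released adenylate kinase using an AK detection reagent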

Question: Which lysis activity does the source give for CC(C)N1C(=O)CC2(CCN(CCOC(=O)C(O)(c3ccccc3)c3ccccc3)CC2)C1=O here?
Answer: Its lysis activity is inactive: -1.17%.

Question: For COc1cc(SC)ccc1C(=O)NCC1(N(C)C)CCCCC1, which lysis activity is on record?
Answer: Its lysis activity is inactive: -1.08%.

Question: For CCN(CC)CC(C)C(C)OC(=O)C(O)(c1ccccc1)c1ccccc1 (centres undefined), which lysis activity is on record?
Answer: The lysis activity was inactive: 2.85%.

Question: With Cc1ccc(C(=O)NCC2(N3CCCCC3)CCCCC2)cc1 as the compound, how does the lysis activity read?
Answer: Its lysis activity is inactive: 0.521%.

Question: For CN1[C@@H]2CC[C@H]1CC(OC(=O)C(O)(c1ccccc1)c1ccccc1)C2 (some centres undefined), which lysis activity is on record?
Answer: The lysis activity was inactive: 0.449%.

Question: With O=C(NCC1(N2CCCCC2)CCCCC1)c1cc(F)c(F)cc1Cl as the compound, how does the lysis activity read?
Answer: Its lysis activity is inactive: -1.26%.

Question: With O=C(NCC1(N2CCCCC2)CCCCC1)c1cccc(Br)c1 as the compound, how does the lysis activity read?
Answer: The lysis activity was inactive: 4.38%.

Question: With Cc1cc(C(=O)NCC2(N3CCCCC3)CCCCC2)ccc1[N+](=O)[O-] as the compound, how does the lysis activity read?
Answer: Its lysis activity is inactive: 2.42%.

Question: For COc1ccc(C(=O)NCC2(N(C)C)CCCCC2)cc1, which lysis activity is on record?
Answer: Its lysis activity is inactive: -2%.

Question: With CN(C)c1ccc(C(=O)NCC2(N(C)C)CCCCC2)cc1 as the compound, how does the lysis activity read?
Answer: The lysis activity was inactive: 1.2%.

Question: With COc1ccc(Cl)cc1C(=O)NCC1(N(C)C)CCCCC1 as the compound, how does the lysis activity read?
Answer: The lysis activity was inactive: -0.175%.

Question: Which lysis activity does the source give for O=C(NCC1(N2CCCCC2)CCCCC1)c1cccc(Cl)c1 here?
Answer: The lysis activity was inactive: 6.43%.

Question: Which lysis activity does the source give for CN(C)C1(CNC(=O)c2ccc(Br)cc2)CCCCC1 here?
Answer: The lysis activity was inactive: 0.137%.

Question: Which lysis activity does the source give for COc1cc(C(=O)NCC2(N(C)C)CCCCC2)c([N+](=O)[O-])cc1OC here?
Answer: The lysis activity was inactive: -0.452%.

Question: Which lysis activity does the source give for COc1ccc(Br)c(C(=O)NCC2(N3CCCCC3)CCCCC2)c1 here?
Answer: Its lysis activity is inactive: -0.714%.

Question: Which lysis activity does the source give for C=C(C)C#CC(O)(C(=O)OC1CCN(C)CC1)c1ccccc1 (centres undefined) here?
Answer: Its lysis activity is inactive: -0.655%.

Question: With CN(C)c1cccc(C(=O)NCC2(N(C)C)CCCCC2)c1 as the compound, how does the lysis activity read?
Answer: The lysis activity was inactive: 2.04%.

Question: Which lysis activity does the source give for O=C(OCCN1CCCC1)C(O)(c1ccccc1)c1ccccc1 here?
Answer: The lysis activity was inactive: -0.492%.

Question: With CC(C)Oc1ccc(C(=O)NCC2(N(C)C)CCCCC2)cc1 as the compound, how does the lysis activity read?
Answer: The lysis activity was inactive: 0.63%.
